# In PubChem BioAssay AID1533 (PCMD, 2009):
# Protein sequences, listed by entry. Tags and fused reporters are not part of them.
# UniProt P9WH09, whole entry, looked up: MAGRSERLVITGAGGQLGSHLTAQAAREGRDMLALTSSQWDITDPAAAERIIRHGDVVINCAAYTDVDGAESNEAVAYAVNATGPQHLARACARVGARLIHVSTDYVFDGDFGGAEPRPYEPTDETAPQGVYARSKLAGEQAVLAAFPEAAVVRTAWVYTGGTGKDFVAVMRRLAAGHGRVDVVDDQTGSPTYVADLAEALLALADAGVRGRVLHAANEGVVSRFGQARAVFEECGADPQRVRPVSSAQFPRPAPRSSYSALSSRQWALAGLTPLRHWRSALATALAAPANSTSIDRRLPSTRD
# UniProt P9WH11, whole entry, looked up: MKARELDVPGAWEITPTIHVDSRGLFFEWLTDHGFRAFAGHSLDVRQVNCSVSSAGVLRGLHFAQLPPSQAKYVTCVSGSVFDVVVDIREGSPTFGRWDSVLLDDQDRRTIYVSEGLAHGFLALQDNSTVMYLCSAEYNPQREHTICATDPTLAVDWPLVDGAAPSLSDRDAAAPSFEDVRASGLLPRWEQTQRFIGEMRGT
# The list shows a part of the results, in another mix than the full data. Some results for these compounds are left out of this collection, so the calls shown say nothing about other tests. The source made the active and inactive calls. Cut-off read from the data, not from the text of the source: active = inhibition mostly above about 34% (no sharp cut-off); inconclusive = no clear call, values can overlap the other calls; inactive = mostly below about 22%.
# Molecular target: dTDP-4-dehydrorhamnose reductase (Mycobacterium tuberculosis (strain ATCC 25618 / H37Rv)) + dTDP-4-dehydrorhamnose 3,5-epimerase (Mycobacterium tuberculosis (strain ATCC 25618 / H37Rv)) (UniProt P9WH09+P9WH11)
# Assay: M. tuberculosis RmlC/RmlD coupled enzyme inhibitors, primary screen, biochemical, compound mixtures, 384-well, from 1536-well plates (AID 1533)
# Settings: RmlC+RmlD coupled enzyme assay, percent inhibition; primary screen in compound mixtures; at 3.6 µM; active compounds read high
row,Compound,inhibition
1,CN(C)C1CCCC1OC(=O)C(O)(c1ccccc1)c1ccccc1 (centres undefined),inactive: 6.18%
2,C=CCN1CCN(CCOC(=O)C(O)(c2ccccc2)c2ccccc2)CC1,inactive: -0.86%
3,CCN1CCCC(OC(=O)C2(O)c3ccccc3C=Cc3ccccc32)C1 (centres undefined),inactive: 3.09%
4,CCN(CC)CC(C)C(C)OC(=O)C(O)(c1ccccc1)c1ccccc1 (centres undefined),inactive: 2.44%
5,CC(C)N1C(=O)CC2(CCN(CCOC(=O)C(O)(c3ccccc3)c3ccccc3)CC2)C1=O,inactive: -7.49%
6,O=C(OC1CN2CCC1CC2)C(CO)(c1ccccc1)c1ccccc1 (centres undefined),inactive: 3.11%
7,COc1ccc(Br)c(C(=O)NCC2(N3CCCCC3)CCCCC2)c1,inactive: 1.33%
8,CN(C)c1cccc(C(=O)NCC2(N(C)C)CCCCC2)c1,inactive: 2.55%
9,COc1cccc(C(=O)NCC2(N3CCCCC3)CCCCC2)c1,inactive: 1.21%
